# From PubChem
# Cneo AK release: causes C. neoformans cell lysis | lysis activity, % at 15 µM | AID 651654 | adenylate kinase release luminescence, 4 h; normalised: neutral wells 0, clomiphene wells 100 | actives 0.2% (n = 360,000);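 active means mean lysis activity across replicates of at least 80%, whatever share of replicates individually reach that level; inactive means mean lysis activity below 80%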
#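 Schedule: static 4 h at 37 °C with compound, 1 h detection; system: C. neoformans cells; benchmarks: Clomiphene as positive control; buffer or medium: fresh YPD medium; measure: luminescence rise reflecting yeast cell lysis; measured by: luminescent adenylate kinase detection reagent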
# UUG fidelity: yeast start codon fidelity modulation | S. cerevisiae UUG-firefly luciferase reporter, luminescence/redox ratio | activity score, % at 18.7 µM | 0.13% of 350,000 active | AID 602363;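 active means replicate mean at a twofold rise or more, about +100% in these data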;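 further: firefly luciferase made from a UUG start codon reports start codon fidelity; reporter light over untreated wells divided by growth signal over untreated wells; some hits fall short of that in this replicate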
# Glyco luc inh: N-linked glycosylation inhibition; D54 ERlucT glycosylation luciferase reporter, 24 h; percent of 100 nM tunicamycin response; reporter increase, % at 12.5 µM; actives 0.23% (n = 360,000); AID 588692;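 active means mean luciferase reporter signal, scaled so untreated is 0 and the glycosylation-blocking control 100, at or above a set limit in every replicate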;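 further: luciferase carries N-glycosylation sites so blocking glycosylation raises the light; 0% = median of neutral control wells and 100% = median of 100 nM tunicamycin wells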
# miR-122 sensor: blocks miR-122 activity in Huh7 sensor cells | actives 0.3% (n = 340,000) | Huh7 miR-122 Renilla luciferase sensor, 48 h; neutral wells = 0, positive control = 100 | activation (reporter increase), % at 12.5 µM | AID 602342;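 active means mean replicate activation score at least 90 and every replicate individually at or above 90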;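 further: higher luciferase means less miR-122 activity so hits act as miR-122 inhibitors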
# Statin myotox sup: suppression of simvastatin myotoxicity | rescue of ATP level, % at 7.49 µM | actives 0.78% (n = 330,000) | C2C12 myotubes + simvastatin, ATP luminescence, 48 h; scaled: DMSO 0, geranylgeraniol control 100;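 active means mean ATP rescue above about 67%, or every replicate alone reaching that limit, limit read from the data, passing the limit was not always enough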;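 further: myotubes were challenged with 10 µM simvastatin during compound exposure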
# An asterisk follows results filed as active; / = no result; [ ] = another dose, or the depositor's remark. Rows were chosen to be rich in hits. Some 1.2% of all compounds tested hit in one or more screens of this group.
# The first 4 entries (preview)
# Every second line gives: Cneo AK release | UUG fidelity | Glyco luc inh | miR-122 sensor | Statin myotox sup
1	CCN1CCN(CC(O)COC(C)C)CC1 (stereo not drawn)
 : -3.2 | -20.8 | -1.6 | -6.1 | 8.5
2	CC(C)OCC(O)CN (stereo not drawn)
 : -0.3 | -8.5 | 0.8 | -1.6 | 96.7*
3	FC(F)(F)c1cccc(NC(=S)NCCc2ccccn2)c1
 : -1.2 | -7.1 | -2.0 | 249.4* | -18.6
4	CC(C)(C)c1ccc(NC(=S)NCCc2ccccn2)cc1
 : / | / | -0.9 | / | /

# Results, previewed entries included:
# Every second line gives: Cneo AK release | UUG fidelity | Glyco luc inh | miR-122 sensor | Statin myotox sup
1	CCN1CCN(CC(O)COC(C)C)CC1 (stereo not drawn)
 : -3.2 | -20.8 | -1.6 | -6.1 | 8.5
2	CC(C)OCC(O)CN (stereo not drawn)
 : -0.3 | -8.5 | 0.8 | -1.6 | 96.7*
3	FC(F)(F)c1cccc(NC(=S)NCCc2ccccn2)c1
 : -1.2 | -7.1 | -2.0 | 249.4* | -18.6
4	CC(C)(C)c1ccc(NC(=S)NCCc2ccccn2)cc1
 : / | / | -0.9 | / | /
5	CSc1nnc2c3cc(F)ccc3n(Cc3ccccc3)c2n1
 : 9.9 | -19.1 | -3.6 | 163.6* | -9.2
6	CO[C@H]1CN(C)C(=O)c2ccc(NS(=O)(=O)c3ccccc3F)cc2OC[C@@H](C)NC[C@H]1C
 : -0.1 | / | / | / | -1.4
7	COc1ccc(C(N)=O)cc1N
 : -0.1 | -10.9 | -0.5 | -0.4 | 129.8*
8	O=C(CC1CC1)Nc1ccc2c(c1)[C@@H]1C[C@H](CC(=O)N3CCc4ccccc4C3)O[C@@H](CO)[C@@H]1O2
 : 70.8 | 25.4 | / | -3.0[16.7 µM] | -6.3
9	COc1ccc(NC(=O)N(C)C[C@H]2OCCCC[C@@H](C)Oc3ccc(NC(=O)Nc4ccc(C(F)(F)F)cc4)cc3C(=O)N([C@H](C)CO)C[C@H]2C)cc1
 : 3.5 | -5.5 | / | -3.6[16.7 µM] | -41.9
10	CC(C)NC(=O)NCC[C@@H]1CC[C@@H](NC(=O)CN(C)C)[C@@H](CO)O1
 : 96.7* | 16.7 | / | 6.6[16.7 µM] | 6.8
11	CC(C)NC(=O)NCC[C@H]1CC[C@H](NC(=O)CN(C)C)[C@H](CO)O1
 : 101.5* | 27.0 | / | 13.5[16.7 µM] | -2.1
12	CN(C)CC(=O)N[C@H]1CC[C@@H](CCNC(=O)C2CCCC2)O[C@H]1CO
 : -0.5 | 3.3 | / | -5.9[16.7 µM] | 7.6
13	CN(C)CC(=O)N[C@H]1CC[C@@H](CCNC(=O)C2CCC2)O[C@H]1CO
 : 0.5 | -3.0 | / | / | 4.9
14	COCC(=O)N1CC[C@@H]2[C@H]1c1cc(-c3ccc(C#N)cc3)ccc1N[C@@H]2CO
 : -9.3 | -15.7 | / | -4.5[16.7 µM] | 1.9
15	COc1cc(C)c(C(C)C)cc1S(=O)(=O)NCCCn1ccnc1
 : -1.7 | -9.7 | 0.1 | 13.5 | 114.2*
16	COc1c(S(=O)(=O)NCCCn2ccnc2)ccc(Cl)c1Cl
 : -0.4 | -14.1 | 1.0 | 125.4* | 4.5
17	C[C@H](CO)N1C[C@H](C)[C@H](CN(C)S(=O)(=O)c2ccc(Cl)cc2)Oc2ccc(NS(=O)(=O)c3cccs3)cc2CC1=O
 : -1.5 | 2.7 | / | 0.6[16.7 µM] | 8.6
18	O=c1[nH]c(Nc2ccccc2Cl)cc2ccccc12
 : -1.8 | -88.5 | 3.0 | 5.8 | 136.3*
19	C[C@@H]1CN([C@H](C)CO)C(=O)c2cc(C3=CCCC3)cnc2O[C@H]1CN(C)C(=O)Nc1ccccc1
 : -1.3 | 4.3 | / | 6.1[16.7 µM] | 48.2
20	C[C@@H]1CCCCO[C@H](CN(C)Cc2ccccc2)[C@H](C)CN([C@H](C)CO)C(=O)c2cc(NC(=O)c3ccncc3)ccc2O1
 : 2.8 | / | / | -0.9[16.7 µM] | /
21	FC(F)(F)c1nc2ccccc2n2c(-c3ccc(Cl)cc3Cl)nnc12
 : 0.0 | -3.4 | -3.4 | -17.2 | 83.9*
22	CCCNC(=O)N1C[C@H](O)COC[C@@H]2O[C@H](CC(=O)OC)CC[C@H]21
 : -1.1 | / | / | -2.3[16.7 µM] | 7.4
23	COC(=O)Cc1[nH]nc2c1C1(C(=O)N(Cc3ccccc3)c3ccccc31)C(C#N)=C(N)O2 (stereo not drawn)
 : 0.5 | 12.7 | 2.1 | -11.1 | 5.5
24	Cc1[nH]nc2c1C1(C(=O)N(Cc3ccc(Cl)cc3)c3ccccc31)C(C#N)=C(N)O2 (stereo not drawn)
 : -0.3 | -4.4 | -4.9 | -0.6 | 104.9*
25	N#C[C@@H]1[C@@H](c2ccccc2)[C@H](CO)N1S(=O)(=O)c1ccc(-c2ccccc2)cc1
 : 3.1 | -3.9 | / | / | 87.9*
26	N#C[C@@H]1[C@@H](c2ccc(-c3ccc(F)cc3)cc2)[C@H](CO)N1C(=O)Cc1ccccc1
 : -1.0 | -7.5 | / | / | 75.2*
27	C/C=C/c1ccc([C@@H]2[C@@H](C#N)N(S(=O)(=O)c3cccc(F)c3)[C@@H]2CO)cc1
 : 108.5* | / | / | / | -35.3
28	N#C[C@@H]1[C@H](c2ccc(-c3cccc(F)c3)cc2)[C@@H](CO)N1S(=O)(=O)c1cccc(F)c1
 : 49.9 | -4.4 | / | / | 8.3
29	COCC(=O)Nc1ccc2c(c1)[C@@H]1C[C@H](CC(=O)N3CCCCC3)O[C@H](CO)[C@@H]1O2
 : 32.7 | 20.7 | / | 24.0[16.7 µM] | -0.6
30	COc1ccc(Nc2nc(N3CCCCC3)c3ccccc3n2)cc1
 : 1.2 | -14.5 | -3.9 | 1.3 | -41.7
